Yeast mating assay B: variants of the scFv Ab-14

Data: MIT Lincoln Laboratory AlphaSeq set, Li et al. 2023, doi:10.1038/s41467-023-39022-2, as distributed in FLAb.

Target: peptide PDVDLGDISGINAS, taken from heptad repeat 2 (HR2) of SARS-CoV-2 spike.

Ab-14 is the parent antibody, in scFv form: VH, then a (GGGGS)3 linker, then VL. The heavy chain is unchanged in all variants.
VH: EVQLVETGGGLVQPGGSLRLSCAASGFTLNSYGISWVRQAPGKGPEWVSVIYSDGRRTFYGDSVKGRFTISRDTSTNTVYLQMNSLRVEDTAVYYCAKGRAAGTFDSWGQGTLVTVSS
VL: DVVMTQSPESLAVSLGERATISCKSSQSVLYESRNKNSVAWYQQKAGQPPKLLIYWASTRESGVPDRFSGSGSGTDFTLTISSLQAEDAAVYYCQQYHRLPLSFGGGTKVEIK

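These sequences belong to a second round, designed from the earlier measurements on random variants of the parent. Group labels follow the data file (Ctrl: baseline library sampled from a position-specific scoring matrix, with some repeated check sequences; GP: Gaussian process model; Gen: genetic algorithm; a sequence that several methods proposed may carry one label only). AlphaSeq pools MATa yeast showing the antibodies with MATalpha yeast showing the peptide. The frequency of each diploid, read from paired DNA barcodes, reflects how well the two displayed proteins bind. The ratio of observed to expected reads was calibrated, replicate by replicate, on BCL2-family standards whose Kd was known from biolayer interferometry. The assay was run in six technical replicates.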

The parent's light chain CDRs are KSSQSVLYESRNKNSVA, WASTRES, QQYHRLPLS; each variant's own CDRs replace them letter for letter.
Values are log10 of the apparent Kd in nM; lower means stronger binding.
An entry "ND" has no value in the source: the pair was not observed among the diploids in that replicate. This suggests poor binding but is not conclusive.

CDR-L1,CDR-L2,CDR-L3,group,log10 Kd (nM) by replicate,signal with controls
HCSQSCLYESRNKNSVA,WADTRES,QQYHRLPLS,Ctrl,ND ND ND ND ND ND,0/18
KSSQSVLYEMRNKNIVA,WAATRES,QQYHRLPLS,Ctrl,ND ND ND ND ND ND,0/18
KSSESVLYESRNKGSVA,WASTRES,QQYARLPLS,Ctrl,ND ND 2.12 1.39 1.98 2.48,1/18 (1.69)
KSSQSVLYESRNKNSIA,WASTRES,QQYNRLPLS,Ctrl,1.85 1.36 1.60 1.97 1.72 2.22,0/18
KSSQSVLYESRNKNSVA,WASTREL,SQYHGLPLK,Ctrl,ND ND ND ND 2.83 ND,0/18
KQDQSWLSESDNKNSVA,SANTRES,QQYHRLPLS,Ctrl,1.59 0.92 0.53 1.41 1.31 1.41,0/18
KSSHSGLYETRNKNSVA,WASTREV,QAYHRLPLS,Ctrl,ND ND ND ND ND ND,0/18
KSSQAVGYESRNKNSVA,MASTREP,QQYHRLPLS,Ctrl,0.95 1.37 1.45 1.36 0.98 1.35,1/18 (2.47)
KSSQAVLYEWTNKNSVA,KASTRES,QQYHRLPLS,Ctrl,1.46 ND 1.60 ND ND ND,0/18
KSPQSVLYELRENNSVA,WASTRES,QQYHRLPLS,Ctrl,ND ND ND ND ND ND,0/18
KSSQSVIYGSRNANSVA,WASTRES,QQYHRLPLS,Ctrl,ND 2.69 2.22 2.41 3.46 2.13,0/18
MSSQSVLYESRNKNSVA,WASTRES,QQYHRLPLS,Ctrl,ND 1.48 1.83 ND ND ND,0/18
KSSGSVLYEQRNKNSVA,WASTREE,QQYHRLPLS,Ctrl,2.39 1.46 ND 1.88 2.61 1.81,0/18
QSAQSVLYESRNKNSVA,WASLRES,QQYHTLPLS,Ctrl,2.23 3.05 2.49 1.35 1.11 2.37,0/18
KSSQSKLYESGNKNSVA,QASTRES,QQYHRLPLS,Ctrl,ND ND 3.14 2.58 2.02 ND,0/18
KSSQSQLYESRNKNSVA,WASTRES,QQYHRLPLL,Ctrl,ND 1.95 ND 1.74 ND 2.94,0/18
KSSQSVLYESLNKNSVA,SASTRES,QQYCRLPLS,Ctrl,0.47 0.74 1.51 0.40 0.20 0.93,0/18
KSSQSVLYESRNKNSVA,NASTRVS,FQPHRLPLS,Ctrl,3.15 3.11 2.34 1.33 3.40 2.14,2/18 (2.45)
KSSKSVLYEERNKNSVA,WASTRES,QQYHRLPLS,Ctrl,1.02 1.04 0.90 0.95 1.30 1.25,1/18 (1.64)
KSSQSMLYESRNKNSVA,WASTREN,QQYHRLPLS,Ctrl,1.38 2.33 1.77 1.37 1.24 2.30,1/18 (2.52)
KSSQSVLYESDNPNSVA,WASVRCS,QQYHRLPLS,Ctrl,ND ND ND 2.68 ND ND,0/18
KSSQSVFYESRNKNSVA,WASTRES,QQYHRLPLS,Ctrl,ND ND ND ND ND ND,0/18
KSSQSVLYESSNKNSVA,DASTRED,QQYHRLPLS,Ctrl,0.07 -0.01 0.10 -0.08 -0.05 0.08,2/18 (3.45)
KVSQSVLYESRNKNNVA,DASTRES,QQYKRLPLS,Ctrl,-0.37 -0.57 -0.73 -0.65 -0.64 -0.50,1/18 (1.91)
KLSQSVLQESSNKNSVA,WASTRKS,QQYHRLPLS,Ctrl,0.98 1.23 1.25 0.36 0.75 0.82,0/18
KISQSVEYPSVNKNSVA,WASTRES,QQYHRLPLS,Ctrl,0.54 0.63 0.53 0.34 0.51 1.12,1/18 (2.99)
KSSQSVLYESRNKHSVA,WASTRES,QQYFRLPLS,Ctrl,2.78 1.36 2.36 1.24 1.26 1.74,0/18
KSSQSCSYESRNKNSVA,SASTRES,FQYHRLPLS,Ctrl,ND ND ND ND ND ND,0/18
KSSYLDLYESRNKNSVA,WANKRES,QQYHRLPLE,Ctrl,1.72 1.13 1.20 1.90 1.94 1.33,3/18 (2.74)
KISQSVEYESFNKNSVA,WASTRES,QQYHRLPLS,Ctrl,1.37 1.00 1.25 1.51 1.70 1.39,0/18
LSSQSVIYESRHMNSVA,WASTRES,QQYHRLPLS,Ctrl,ND ND ND ND ND ND,1/18 (1.84)
KSSQSVLTESRNKNSVA,RASTREP,QQYHRLPLS,Ctrl,ND ND ND ND ND ND,0/18
KSSQSVLYDSRNKNSVA,WASTRRS,QQYHRLPLS,Ctrl,2.11 2.25 2.37 0.70 2.69 2.00,2/18 (2.79)
KSSMSVLYESRNKNSVA,AASTRES,QQYHRLPLS,Ctrl,1.42 1.65 1.64 1.02 1.27 1.46,0/18
KVSQSVLYESRNKNSVA,AASTRES,QQYHRLPLS,Ctrl+GP_Gen,-0.29 -0.50 -0.45 -0.63 -0.21 -0.12; 1.53 1.08 1.03 1.39 1.23 1.07,2/36 (2.18)
KSSQGVLYESRNKNSIA,WATTRES,QQYHRLPLS,Ctrl,1.00 1.44 1.49 1.27 1.45 1.47,1/18 (3.57)
KSSQSVLYESRNKNSVA,GASTRES,QQYHVLPLS,Ctrl,1.17 0.93 0.77 0.76 0.63 0.82,0/18
KSSQSVLYESRDKNSVA,WAVTRES,QCYYRLPTS,Ctrl,ND ND ND ND ND 3.78,1/18 (1.67)
KSDQSVLYESRNGNSVA,SASTRES,QQYHRHPLS,Ctrl,ND ND ND ND ND ND,1/18 (2.72)
SDSQSVLYESRNKNSVA,WGSTRES,QQYCRLPIS,Ctrl,ND ND ND ND ND ND,0/18
KCSQSVLYESMNKNSVA,SASTRES,QIYHRLPLS,Ctrl,1.92 1.52 2.02 1.99 1.79 3.14,0/18
KSSQSVLQESRNKNSVA,WASTRSS,QQYHRLPLS,Ctrl,2.47 4.80 2.95 ND 3.26 ND,1/18 (3.10)
KSSQSVLAESRNKNSVA,WASTRES,QQYHRYPLS,Ctrl,4.27 2.56 2.02 ND 2.13 ND,0/18
KSSQSVLHYSVNKNSVA,KASTRES,QQYHRLPLS,Ctrl,1.42 1.00 1.43 1.43 1.28 1.29,1/18 (2.73)
KLRQSVLYESRNKNSVA,WASTRES,QQYHRLPLS,Ctrl,ND ND ND ND ND ND,2/18 (1.28)
KSSQSVLYESRNPNSVA,WASTREL,QQYHRLPLS,Ctrl,ND 2.39 2.86 1.74 0.90 ND,1/18 (2.84)
KSSQSVYYESRNKNSVA,DASTREL,QQYHRLPLS,Ctrl,0.70 0.46 0.31 0.55 0.24 0.80,1/18 (2.33)

Repeated from above, the 3 best binders with a signal in all replicates:

CDR-L1,CDR-L2,CDR-L3,group,log10 Kd (nM) by replicate,signal with controls
KVSQSVLYESRNKNNVA,DASTRES,QQYKRLPLS,Ctrl,-0.37 -0.57 -0.73 -0.65 -0.64 -0.50,1/18 (1.91)
KSSQSVLYESSNKNSVA,DASTRED,QQYHRLPLS,Ctrl,0.07 -0.01 0.10 -0.08 -0.05 0.08,2/18 (3.45)
KVSQSVLYESRNKNSVA,AASTRES,QQYHRLPLS,Ctrl+GP_Gen,-0.29 -0.50 -0.45 -0.63 -0.21 -0.12; 1.53 1.08 1.03 1.39 1.23 1.07,2/36 (2.18)

Background: pairings of all light chain designs with three empty control strains gave a value in 4% of cases (median 2.64, 5th percentile 1.59). Values in that range, when seen in few replicates, are hard to tell from nonspecific mating. The control count says in how many pairings with the empty strains this scFv gave a signal, with their mean in brackets.
The range of this assay differs from that of the first round, and the authors advise against merging the two.
The parent sequence was in this pool as ten entries: three were never detected, three once, and four in most replicates, with averages from 0.34 to 2.37.
The authors averaged sequences with at least three values out of six and counted those with two or fewer as poor binders.
Some sequences occur more than once in the pool; their replicates are listed entry by entry, parted by semicolons.